Columns and labels:
[1] = molecular target: human TNFα (soluble) (human) (UniProt P01375); test: SPR, Biacore T100, antibody captured on protein A, 37° C., 1:1 model, n=3
human IL-23 (human) [2] = molecular target: human IL-23 (human) (UniProt Q9NPF7); test: as above
human IL-23 (human) [3] = molecular target: human IL-23 (human) (UniProt Q9NPF7); test: SPR, Biacore T100, 37° C.; human IL-23 injected at 100 nM for 5 min after saturation of the captured antibody with human TNFα
[4] = molecular target: human TNFα (soluble) (human) (UniProt P01375); test: SPR, Biacore T100, 37° C.; 95.3 RU of antibody captured on protein A, human TNFα injected at 100 nM for 5 min
[5] = molecular target: human non-cleavable membrane bound TNFα on CHO cells (human) (UniProt P01375); test: cell-based or functional assay
[6] = molecular target: human TNFα (soluble) (human) (UniProt P01375); test: cell-based or functional assay
human IL-23 (human) [7] = molecular target: human IL-23 (human) (UniProt Q9NPF7); test: cell-based or functional assay

| Substance | Kd [1] [nM] | koff [1] [s⁻¹] | kon [1] [M⁻¹ s⁻¹] | Kd (human IL-23 (human) [2]) [nM] | koff (human IL-23 (human) [2]) [s⁻¹] | kon (human IL-23 (human) [2]) [M⁻¹ s⁻¹] | additional binding signal (Δ RU) (human IL-23 (human) [3]) | binding signal (Δ RU) [4] | inhibition of killing of L929 cells by human non-cleavable membrane bound TNFα CHO cells (IC50, MTT assay) [5] [nM] | CXCL1 Level (pg/mL) in plasma of mice challenged with human TNFα [6] [pg/mL] | inhibition of human TNFα-induced killing of L929 cells (IC50, MTT assay) [6] [nM] | inhibition of human IL-23 induced Stat 3 phosphorylation in Kit225 cells (IC50) (human IL-23 (human) [7]) [nM] | mIL22 Level (pg/mL) in plasma of mice challenged with human IL-23 (human IL-23 (human) [7]) [pg/mL] |
| --- | --- | --- | --- | --- | --- | --- | --- | --- | --- | --- | --- | --- | --- |
| exemplified bispecific antibody (anti-TNFα IgG1 with an anti-IL-23p19 scFv fused to the C-terminus of each heavy chain) (bispecific antibody; other documents disagree on this pair) | 0.096 | 0.0004 | 4.1e+06 | 0.121 | 0.0001 | 830000 | 57.3 Δ RU | 32.4 Δ RU | – | – | – | – | – |
| exemplified bispecific antibody (anti-TNFα IgG1 with an anti-IL-23p19 scFv fused to the C-terminus of each heavy chain) | – | – | – | – | – | – | – | – | 0.755 | 622 | 0.233 | 0.158 | 1.3 |
